These are literature values, as cited in patent EP3494999A1, “PSMA LIGANDS FOR IMAGING AND ENDORADIOTHERAPY” (Technische Universität München, priority 2017, dated 2019).

The chains behind the UniProt entries cited, without tags or fusion partners. Residues count along the entry.
UniProt P02768, 25-609: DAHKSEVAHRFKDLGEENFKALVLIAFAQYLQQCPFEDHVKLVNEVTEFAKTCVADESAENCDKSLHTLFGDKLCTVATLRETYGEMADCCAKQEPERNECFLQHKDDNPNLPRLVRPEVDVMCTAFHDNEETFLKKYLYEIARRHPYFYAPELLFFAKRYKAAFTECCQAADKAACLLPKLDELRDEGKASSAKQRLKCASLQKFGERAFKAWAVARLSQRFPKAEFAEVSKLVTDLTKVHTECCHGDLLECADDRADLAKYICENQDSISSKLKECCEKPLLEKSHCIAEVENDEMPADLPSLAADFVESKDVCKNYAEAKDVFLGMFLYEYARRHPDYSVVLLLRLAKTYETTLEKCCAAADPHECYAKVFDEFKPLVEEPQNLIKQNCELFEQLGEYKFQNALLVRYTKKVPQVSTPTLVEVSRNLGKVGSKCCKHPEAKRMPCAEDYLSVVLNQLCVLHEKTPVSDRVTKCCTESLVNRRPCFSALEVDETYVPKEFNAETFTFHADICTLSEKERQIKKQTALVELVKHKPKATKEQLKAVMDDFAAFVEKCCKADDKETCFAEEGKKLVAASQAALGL

The data set concerns the target human serum albumin (Homo sapiens, UniProt P02768). The following applies: literature value of human serum albumin binding (Valko et al. or Yamazaki et al.); cited from earlier work.

Consider p-benzylalcohol, for which the “Lit. HSA%” value is listed as 13.15%.
